Results on 1 compound are retold here after PMC5864910, “Mutacin 1140 Lantibiotic Variants Are Efficacious Against Clostridium difficile Infection” (Frontiers in Microbiology, 2018).

Amino acid sequences for entries named in this document (tags omitted). A change or cut given only in a name is not applied to a line headed by its entry. Residues count along the entry.
UniProt P34972, whole entry: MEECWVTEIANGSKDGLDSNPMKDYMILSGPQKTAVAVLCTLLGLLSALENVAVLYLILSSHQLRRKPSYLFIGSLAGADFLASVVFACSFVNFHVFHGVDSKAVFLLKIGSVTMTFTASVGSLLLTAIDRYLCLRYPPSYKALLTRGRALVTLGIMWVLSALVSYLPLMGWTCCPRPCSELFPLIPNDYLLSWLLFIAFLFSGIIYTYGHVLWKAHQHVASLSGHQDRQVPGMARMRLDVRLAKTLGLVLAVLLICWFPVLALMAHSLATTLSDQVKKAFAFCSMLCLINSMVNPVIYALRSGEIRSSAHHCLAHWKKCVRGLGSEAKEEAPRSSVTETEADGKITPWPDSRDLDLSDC
UniProt Q01959, whole entry: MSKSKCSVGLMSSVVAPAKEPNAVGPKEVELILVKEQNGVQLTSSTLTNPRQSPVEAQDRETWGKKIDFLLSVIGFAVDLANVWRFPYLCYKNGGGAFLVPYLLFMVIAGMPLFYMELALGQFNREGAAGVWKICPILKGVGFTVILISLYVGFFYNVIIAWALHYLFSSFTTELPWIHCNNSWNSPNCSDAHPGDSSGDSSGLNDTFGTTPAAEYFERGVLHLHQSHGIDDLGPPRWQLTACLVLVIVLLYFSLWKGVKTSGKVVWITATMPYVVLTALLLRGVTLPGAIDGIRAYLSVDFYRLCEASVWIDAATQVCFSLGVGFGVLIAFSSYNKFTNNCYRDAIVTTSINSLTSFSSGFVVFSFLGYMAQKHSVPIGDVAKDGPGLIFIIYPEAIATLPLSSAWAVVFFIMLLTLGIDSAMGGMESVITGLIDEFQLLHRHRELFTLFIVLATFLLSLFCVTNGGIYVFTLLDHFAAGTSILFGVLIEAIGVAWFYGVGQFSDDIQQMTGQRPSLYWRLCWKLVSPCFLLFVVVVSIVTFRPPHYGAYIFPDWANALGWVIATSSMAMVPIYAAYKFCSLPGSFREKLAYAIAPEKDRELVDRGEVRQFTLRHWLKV
UniProt P25021, whole entry: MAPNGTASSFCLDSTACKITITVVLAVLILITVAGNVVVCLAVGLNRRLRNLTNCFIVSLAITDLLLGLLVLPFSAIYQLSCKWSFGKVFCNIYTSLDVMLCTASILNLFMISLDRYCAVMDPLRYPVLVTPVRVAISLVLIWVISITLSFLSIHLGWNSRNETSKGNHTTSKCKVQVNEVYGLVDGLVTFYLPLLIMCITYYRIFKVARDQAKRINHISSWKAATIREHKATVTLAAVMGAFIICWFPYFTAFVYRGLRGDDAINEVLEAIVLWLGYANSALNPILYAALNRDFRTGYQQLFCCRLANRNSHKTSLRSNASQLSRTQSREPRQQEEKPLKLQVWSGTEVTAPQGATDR
UniProt Q14432: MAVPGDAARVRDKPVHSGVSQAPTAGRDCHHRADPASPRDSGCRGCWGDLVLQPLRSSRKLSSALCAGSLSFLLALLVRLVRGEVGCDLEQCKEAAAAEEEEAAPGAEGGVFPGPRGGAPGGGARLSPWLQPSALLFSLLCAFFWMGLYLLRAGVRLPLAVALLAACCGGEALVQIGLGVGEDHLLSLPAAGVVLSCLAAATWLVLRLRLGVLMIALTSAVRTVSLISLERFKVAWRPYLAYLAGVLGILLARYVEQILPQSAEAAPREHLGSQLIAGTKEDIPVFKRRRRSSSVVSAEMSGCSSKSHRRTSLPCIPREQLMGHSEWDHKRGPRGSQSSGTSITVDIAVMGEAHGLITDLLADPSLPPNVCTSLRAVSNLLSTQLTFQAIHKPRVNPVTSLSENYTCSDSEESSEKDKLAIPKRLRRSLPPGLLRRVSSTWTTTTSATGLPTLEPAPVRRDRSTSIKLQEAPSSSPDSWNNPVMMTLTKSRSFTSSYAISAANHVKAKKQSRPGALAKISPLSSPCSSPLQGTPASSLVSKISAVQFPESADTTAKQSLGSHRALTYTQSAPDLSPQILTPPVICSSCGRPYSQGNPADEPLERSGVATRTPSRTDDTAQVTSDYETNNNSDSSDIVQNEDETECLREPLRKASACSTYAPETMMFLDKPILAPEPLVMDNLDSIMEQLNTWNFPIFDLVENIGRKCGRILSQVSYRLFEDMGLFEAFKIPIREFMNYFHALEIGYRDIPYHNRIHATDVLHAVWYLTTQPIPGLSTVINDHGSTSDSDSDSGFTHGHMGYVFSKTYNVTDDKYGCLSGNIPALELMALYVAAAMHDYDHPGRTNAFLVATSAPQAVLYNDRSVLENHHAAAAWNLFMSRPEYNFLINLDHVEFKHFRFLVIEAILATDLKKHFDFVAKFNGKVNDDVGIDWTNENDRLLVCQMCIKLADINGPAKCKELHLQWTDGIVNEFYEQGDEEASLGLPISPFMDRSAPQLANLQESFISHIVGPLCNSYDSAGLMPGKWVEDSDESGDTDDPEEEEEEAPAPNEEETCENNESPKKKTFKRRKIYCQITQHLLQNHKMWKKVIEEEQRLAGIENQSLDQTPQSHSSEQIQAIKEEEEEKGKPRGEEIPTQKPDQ
UniProt P28564, whole entry: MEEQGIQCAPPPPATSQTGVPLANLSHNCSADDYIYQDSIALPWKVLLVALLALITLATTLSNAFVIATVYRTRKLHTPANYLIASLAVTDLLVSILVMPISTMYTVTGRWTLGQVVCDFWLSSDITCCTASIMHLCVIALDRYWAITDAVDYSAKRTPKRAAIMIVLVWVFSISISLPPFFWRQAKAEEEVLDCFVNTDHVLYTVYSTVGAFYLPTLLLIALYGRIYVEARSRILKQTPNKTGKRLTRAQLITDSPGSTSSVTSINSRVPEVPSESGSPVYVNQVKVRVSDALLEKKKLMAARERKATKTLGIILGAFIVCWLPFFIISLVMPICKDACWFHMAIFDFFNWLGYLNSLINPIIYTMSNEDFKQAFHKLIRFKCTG
UniProt P22303, 32-614: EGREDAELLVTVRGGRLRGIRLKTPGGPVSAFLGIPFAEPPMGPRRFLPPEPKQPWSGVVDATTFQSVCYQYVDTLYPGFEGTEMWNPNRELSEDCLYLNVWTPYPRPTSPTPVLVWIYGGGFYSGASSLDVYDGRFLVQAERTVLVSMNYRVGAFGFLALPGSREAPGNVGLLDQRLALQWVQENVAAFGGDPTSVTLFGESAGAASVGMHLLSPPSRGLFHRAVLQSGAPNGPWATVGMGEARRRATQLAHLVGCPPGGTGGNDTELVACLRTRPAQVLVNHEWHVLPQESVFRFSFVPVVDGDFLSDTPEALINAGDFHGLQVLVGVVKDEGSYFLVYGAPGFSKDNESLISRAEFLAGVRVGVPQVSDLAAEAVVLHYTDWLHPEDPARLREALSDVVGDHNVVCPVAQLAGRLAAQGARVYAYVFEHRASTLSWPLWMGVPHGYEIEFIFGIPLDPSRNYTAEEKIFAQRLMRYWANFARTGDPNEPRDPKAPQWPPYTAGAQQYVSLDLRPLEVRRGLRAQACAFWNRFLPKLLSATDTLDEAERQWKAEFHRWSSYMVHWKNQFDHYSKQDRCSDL
UniProt P31645, whole entry: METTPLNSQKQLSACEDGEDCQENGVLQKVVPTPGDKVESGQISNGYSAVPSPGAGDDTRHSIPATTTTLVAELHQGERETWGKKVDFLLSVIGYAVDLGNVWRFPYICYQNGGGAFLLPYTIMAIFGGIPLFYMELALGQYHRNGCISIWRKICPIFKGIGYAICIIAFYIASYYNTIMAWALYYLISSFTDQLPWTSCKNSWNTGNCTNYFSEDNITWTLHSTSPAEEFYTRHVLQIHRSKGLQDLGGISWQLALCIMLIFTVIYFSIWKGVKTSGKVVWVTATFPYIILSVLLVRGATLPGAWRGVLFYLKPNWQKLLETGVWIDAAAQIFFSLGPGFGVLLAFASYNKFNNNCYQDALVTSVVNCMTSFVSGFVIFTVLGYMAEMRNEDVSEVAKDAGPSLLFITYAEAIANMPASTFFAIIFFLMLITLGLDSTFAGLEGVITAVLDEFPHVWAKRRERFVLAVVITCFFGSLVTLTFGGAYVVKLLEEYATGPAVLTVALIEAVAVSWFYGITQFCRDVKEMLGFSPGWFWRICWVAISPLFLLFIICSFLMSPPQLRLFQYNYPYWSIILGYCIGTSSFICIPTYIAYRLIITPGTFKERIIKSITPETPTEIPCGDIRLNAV
UniProt P28223, whole entry: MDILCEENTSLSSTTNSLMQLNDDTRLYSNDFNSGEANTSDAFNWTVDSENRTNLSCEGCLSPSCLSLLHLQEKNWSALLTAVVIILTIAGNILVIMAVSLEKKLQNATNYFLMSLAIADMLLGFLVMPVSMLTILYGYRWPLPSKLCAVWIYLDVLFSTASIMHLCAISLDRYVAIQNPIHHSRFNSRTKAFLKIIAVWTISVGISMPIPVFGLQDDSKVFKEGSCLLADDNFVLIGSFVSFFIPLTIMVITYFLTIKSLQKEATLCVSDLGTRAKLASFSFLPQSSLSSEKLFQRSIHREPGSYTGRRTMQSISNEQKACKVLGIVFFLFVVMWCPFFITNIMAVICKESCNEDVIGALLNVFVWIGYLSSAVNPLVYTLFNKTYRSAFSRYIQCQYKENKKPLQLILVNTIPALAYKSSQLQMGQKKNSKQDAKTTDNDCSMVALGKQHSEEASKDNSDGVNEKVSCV

Among the targets are CB2 (Homo sapiens, UniProt P34972); Dopamine (Homo sapiens, UniProt Q01959); H2 (Homo sapiens, UniProt P25021); PDE3A (Homo sapiens, UniProt Q14432); 5-HT (1B) (Rattus norvegicus, UniProt P28564); ACHE (Homo sapiens, UniProt P22303); 5-HT Transporter (Homo sapiens, UniProt P31645); 5-HT (2A) (Homo sapiens, UniProt P28223).
The subject of data set [1] is Safety Screen 44 panel of human recombinant proteins.
The next data set deals with T1, alpha1A (Homo sapiens, UniProt P35348).
T1 sequence (P35348 1-466): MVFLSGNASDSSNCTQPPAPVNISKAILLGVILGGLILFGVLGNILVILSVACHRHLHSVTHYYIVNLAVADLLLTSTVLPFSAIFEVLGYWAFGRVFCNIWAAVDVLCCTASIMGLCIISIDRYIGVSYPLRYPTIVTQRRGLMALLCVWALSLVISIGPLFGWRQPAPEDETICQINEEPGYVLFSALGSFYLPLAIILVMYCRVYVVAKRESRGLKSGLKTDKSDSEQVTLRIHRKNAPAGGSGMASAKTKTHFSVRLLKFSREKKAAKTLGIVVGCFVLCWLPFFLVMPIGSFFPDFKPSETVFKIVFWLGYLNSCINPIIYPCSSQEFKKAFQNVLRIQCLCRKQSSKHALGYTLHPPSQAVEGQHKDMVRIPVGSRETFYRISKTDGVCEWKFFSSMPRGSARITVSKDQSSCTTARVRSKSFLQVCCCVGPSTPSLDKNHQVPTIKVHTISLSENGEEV

The next data set concerns the target T2, AR (Homo sapiens, UniProt P10275, T878A).
T2 sequence (P10275 1-920 T878A): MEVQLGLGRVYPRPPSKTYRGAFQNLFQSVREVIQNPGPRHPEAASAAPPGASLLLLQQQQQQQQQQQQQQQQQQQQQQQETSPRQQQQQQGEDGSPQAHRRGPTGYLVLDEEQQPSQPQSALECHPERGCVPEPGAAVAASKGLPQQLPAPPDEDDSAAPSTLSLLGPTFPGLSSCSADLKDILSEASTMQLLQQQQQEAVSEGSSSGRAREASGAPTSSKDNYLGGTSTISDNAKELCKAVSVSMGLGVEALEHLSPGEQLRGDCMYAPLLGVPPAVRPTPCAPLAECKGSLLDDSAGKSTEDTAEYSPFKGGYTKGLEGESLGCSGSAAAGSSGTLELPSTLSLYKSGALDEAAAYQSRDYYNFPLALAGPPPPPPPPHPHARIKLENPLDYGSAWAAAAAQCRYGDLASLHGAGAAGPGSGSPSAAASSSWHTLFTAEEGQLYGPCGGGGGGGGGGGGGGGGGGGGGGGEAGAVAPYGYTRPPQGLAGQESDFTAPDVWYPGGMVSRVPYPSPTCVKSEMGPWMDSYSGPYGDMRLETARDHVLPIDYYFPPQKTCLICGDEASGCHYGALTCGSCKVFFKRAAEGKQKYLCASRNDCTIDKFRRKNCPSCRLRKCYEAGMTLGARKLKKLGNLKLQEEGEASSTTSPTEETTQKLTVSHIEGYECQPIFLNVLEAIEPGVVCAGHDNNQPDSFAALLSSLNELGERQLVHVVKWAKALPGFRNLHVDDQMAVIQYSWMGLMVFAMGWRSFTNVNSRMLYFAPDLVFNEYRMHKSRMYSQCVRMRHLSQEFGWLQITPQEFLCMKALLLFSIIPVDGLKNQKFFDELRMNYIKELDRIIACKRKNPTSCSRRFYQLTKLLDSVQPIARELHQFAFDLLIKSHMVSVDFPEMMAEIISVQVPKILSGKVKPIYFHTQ

Regarding `C=C1NC(=O)[C@H](Cc2c[nH]c3ccccc23)NC(=O)[C@H](NC(=O)[C@H](CCCCN)NC(=O)[C@@H](N)Cc2ccccc2)CSC[C@@H](C(=O)N[C@H]2C(=O)N3CCC[C@H]3C(=O)NCC(=O)N[C@H](C(=O)N[C@@H](C)C(=O)N[C@@H](CCCNC(=N)N)C(=O)N/C(=C\C)C(=O)NCC(=O)N[C@@H]3CSC[C@@H]4NC(=O)[C@H](Cc5ccc(O)cc5)NC(=O)[C@@H](CS/C=C\NC4=O)NC(=O)[C@H](CC(N)=O)NC(=O)[C@H](Cc4ccccc4)NC3=O)CS[C@H]2C)NC(=O)[C@H](C)NC1=O` [L6A], at CB2, the “Cerep SafetyScreen 44 % Inhibition CB2” value was found to be 10%. The “Promiscuity Analysis (% of scores >50%)” value in data set [1] was found to be 0.000%. Further, the “Cerep SafetyScreen 44 % Inhibition alpha1A” value on alpha1A is -6%. The “Cerep SafetyScreen 44 % Inhibition Dopamine” value at Dopamine is listed as -2%. For the same compound, the “Cerep SafetyScreen 44 % Inhibition AR” value on AR is reported as -8%. Further, at H2, the “Cerep SafetyScreen 44 % Inhibition H2” value is recorded as -24%. The “Cerep SafetyScreen 44 % Inhibition PDE3A” value at PDE3A is reported as -2%. The “Cerep SafetyScreen 44 % Inhibition 5-HT (1B)” value on 5-HT (1B) is -34%. In addition, the “Cerep SafetyScreen 44 % Inhibition ACHE” value on ACHE was -13%. For the same compound, the “Cerep SafetyScreen 44 % Inhibition 5-HT Transporter” value at 5-HT Transporter is reported as -7%. At 5-HT (2A), the “Cerep SafetyScreen 44 % Inhibition 5-HT (2A)” value was -3%.
